Patent US11168364B2, “Method and system for sequencing nucleic acids” (priority 2016, dated 2021)

The chains behind the UniProt entries cited, without tags or fusion partners. Residues count along the entry.
UniProt P00582, 324-928 D355A/E357A limits assumed: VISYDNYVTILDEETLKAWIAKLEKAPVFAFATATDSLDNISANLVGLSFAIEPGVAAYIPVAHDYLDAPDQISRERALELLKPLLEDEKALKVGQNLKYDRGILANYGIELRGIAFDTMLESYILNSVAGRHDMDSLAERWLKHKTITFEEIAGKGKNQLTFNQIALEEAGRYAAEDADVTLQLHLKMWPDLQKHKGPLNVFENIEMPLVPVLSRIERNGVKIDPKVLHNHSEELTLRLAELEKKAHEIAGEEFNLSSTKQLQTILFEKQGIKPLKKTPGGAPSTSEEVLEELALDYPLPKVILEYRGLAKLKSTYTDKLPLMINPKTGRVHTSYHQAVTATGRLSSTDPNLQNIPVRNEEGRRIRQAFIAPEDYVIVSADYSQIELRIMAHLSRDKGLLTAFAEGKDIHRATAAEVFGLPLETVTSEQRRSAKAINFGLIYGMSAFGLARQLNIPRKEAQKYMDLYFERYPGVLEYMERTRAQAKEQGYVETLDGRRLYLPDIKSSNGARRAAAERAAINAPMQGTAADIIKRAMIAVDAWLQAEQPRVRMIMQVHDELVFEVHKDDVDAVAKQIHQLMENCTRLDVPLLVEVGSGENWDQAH

Molecular target: Klenow (3′→5′ exo(−)) fragment of E. coli DNA polymerase (Escherichia coli, UniProt P00582, D355A/E357A)

For O=S(=O)([O-])[O-].O=S(=O)([O-])[O-].[Fe+2].[NH4+].[NH4+] [Fe2+, ferrous ammonium sulfate], the “binding of Klenow exo(−) and dCTP to biosensor coated with ssDNA primer-template” value was “transient peak” and the “nucleotide incorporation by Klenow exo(−) in the absence of Mg2+” value was “complete nucleotide incorporation”.
